Laboratory results reported in PMC13626057, “Sensitizing tumor response to topoisomerase I antibody-drug conjugate by selective CDK7 inhibition” (Science Advances, 2026).

The chains behind the UniProt entries cited, without tags or fusion partners.
UniProt P50613, whole entry: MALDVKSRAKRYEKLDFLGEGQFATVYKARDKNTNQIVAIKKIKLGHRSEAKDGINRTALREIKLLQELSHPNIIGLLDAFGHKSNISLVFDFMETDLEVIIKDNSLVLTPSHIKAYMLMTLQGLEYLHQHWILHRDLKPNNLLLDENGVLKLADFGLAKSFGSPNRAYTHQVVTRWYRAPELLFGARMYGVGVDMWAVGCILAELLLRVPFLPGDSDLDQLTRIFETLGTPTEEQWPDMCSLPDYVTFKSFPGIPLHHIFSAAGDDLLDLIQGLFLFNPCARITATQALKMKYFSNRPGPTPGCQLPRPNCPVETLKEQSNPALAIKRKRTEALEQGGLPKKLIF
UniProt P51948, whole entry partner: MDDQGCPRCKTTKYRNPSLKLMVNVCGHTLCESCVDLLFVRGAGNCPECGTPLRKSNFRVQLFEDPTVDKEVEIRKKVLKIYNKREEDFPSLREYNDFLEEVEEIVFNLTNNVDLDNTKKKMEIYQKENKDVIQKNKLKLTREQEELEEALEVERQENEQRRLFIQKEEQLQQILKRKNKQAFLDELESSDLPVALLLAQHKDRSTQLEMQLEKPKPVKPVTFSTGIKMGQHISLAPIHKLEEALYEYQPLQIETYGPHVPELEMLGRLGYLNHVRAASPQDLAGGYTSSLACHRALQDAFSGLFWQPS
UniProt P51946, whole entry partner: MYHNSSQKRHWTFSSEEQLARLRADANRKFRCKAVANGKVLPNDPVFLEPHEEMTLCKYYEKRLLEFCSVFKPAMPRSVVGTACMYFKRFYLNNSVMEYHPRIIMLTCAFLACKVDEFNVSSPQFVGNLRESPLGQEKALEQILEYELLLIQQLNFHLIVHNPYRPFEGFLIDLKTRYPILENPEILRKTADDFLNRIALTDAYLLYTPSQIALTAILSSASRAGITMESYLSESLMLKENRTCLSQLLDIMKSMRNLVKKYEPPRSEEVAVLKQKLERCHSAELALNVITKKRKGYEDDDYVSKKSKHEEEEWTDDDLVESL

Molecular target: recombinant human CDK7/cyclin H/MNAT1 (Homo sapiens, UniProt P50613)
Test: LANCE Ultra TR-FRET CDK7 kinase assay (cell-free enzymatic assay)
Details: read-out: IC50 against CDK7, eight-point dilution, top 3000 nM

IC50 [nM]	Structure (SMILES)
10	CC(F)C(=O)Nc1ccc2c(-c3ccccc3CNc3nc(NC[C@H]4CCNC[C@@H]4O)nc4c(C(C)C)cnn34)nccc2c1 (some centres unmarked)
5.51	CC(C)c1cnn2c(NCc3ccccc3-c3nccc4cc(N)ccc34)nc(NC[C@H]3CCNC[C@@H]3O)nc12
